Source: US7803801B2, “Aminopyridine compounds having Syk inhibitory activity” (Japan Tobacco, Inc., priority 2005, dated 2010)

Key:
[1] = target: GST-Syk Full Protein (human) (Homo sapiens, UniProt P43405); experiment: Syk kinase inhibition test (HTRF method); format: biochemical; conditions: read-out: sykHTRF ave IC50, 100 μM ATP, 30 min room temperature, average
Description: Syk Kinase Inhibition Test (HTRF Method)
After the compounds were serially diluted with dimethylsulfoxide (DMSO), 10 μL of those 10-fold diluted with kinase buffer (20 mM HEPES pH 7.0, 10 mM MgCl2, 50 mM NaCl, 1 mM 2-ME, 0.05% BSA) was added to opti-plate HTRF-96 (Packard) (final DMSO concentration: 2%). […] After allowed to stand still at room temperature for 1 hour, inhibitory effect of a compound against Syk kinase enzymatic activity was evaluated by measuring 665/620 fluorescence ratio to excitation light at 337 nm by ARVO (Wallac).

[2] = test system: cultured human mast cells; experiment: Degranulation inhibition test using cultured human mast cells (IgE cross-linking, β-Hexosaminidase release); format: cell-based; conditions: read-out: human degranulation ave. IC50, anti-hIgE stimulation, β-Hexosaminidase index, average
Description: Degranulation Inhibition Test Using Cultured Human Mast Cells
(1) Separation of Hematopoietic Stem Cells;
After 10 to 60 mL of umbilical cord blood collected with heparin was diluted with an equivalent amount of buffer (0.5% BSA, 2 mM EDTA/PBS-), it was superposed on Ficoll-Paque (Amersham Pharmacia Biotech) (Ficoll/Blood (1:2)) and mononuclear leukocyte fraction was collected by centrifuging it at 400 G (1350 rpm) 4° C. for 30 minutes. After centrifugal washing (1500 rpm, 5 min, 4° C.×3) with buffer, the number of cells was counted and 0.1 mL of CD34 Progenitor Cell Isolation Kit (Miltenyi Biotec), Reagent A1 (Fc blocking) was added for 1×10^8 cells. After agitation, 0.1 mL of Reagent A2 (CD34 antibody-hapten) was added (final volume 0.5 mL/1×10^8 cells) and incubated at 9° C. for further 15 minutes after agitation. […]
10 μL of a compound 10-fold diluted with IMDM after dissolved in DMSO (DMSO final concentration 0.1%) was added and reacted at 37° C. for 10 minutes. […] After centrifugation, 50 μL/well of the supernatant was collected and stored at −40° C. untill the quantity of degranulation was measured. The measurement of quantity of degranulation was performed using enzymatic activity of β-Hexosaminidase contained in the granulates as an index. […]

**Q.** With `Cc1ccnc(Nc2cccc(-c3cnc([C@H]4CC[C@H](C(=O)N5CCC(=O)CC5)CC4)s3)n2)c1` as the molecule, how does the IC50 [1] read?
**A.** 0.1 to 1 µM

**Q.** What about the IC50 [2] of the same molecule?
**A.** > 1 µM
